One test relates to MDA-MB-436 cells. In words: cells. The conditions noted are these: Homo sapiens, MDA-MB-436, read-out: Paclitaxel IC50.
A further test concerns MDA-MB-453 cells. In words: cells. The conditions noted are these: Homo sapiens, MDA-MB-453, read-out: Paclitaxel IC50.

The term IC50 denotes the concentration needed to halve the response being measured.

As to `CC(=O)O[C@H]1C(=O)[C@@]2(C)[C@H]([C@H](OC(=O)c3ccccc3)[C@]3(O)C[C@H](OC(=O)[C@H](O)[C@@H](NC(=O)c4ccccc4)c4ccccc4)C(C)=C1C3(C)C)[C@]1(OC(C)=O)CO[C@@H]1C[C@@H]2O` [paclitaxel], the IC50 in the test with MDA-MB-436 cells worked out at 6.7 nM; in the test on MDA-MB-453 cells, 20.7 nM.

The record behind these values is patent US10196693B2, “Method for predicting response to breast cancer therapeutic agents and method of treatment of breast cancer” (MEDIVATION PROSTATE THERAPEUTICS, LLC, priority 2014, dated 2019).
